Measured values as given in patent publication US7192924B2, “Corticotropin releasing factor 2 receptor agonists” (priority 2002, dated 2007).

Assays:
[1] = molecular target: T1, CRF2R (Homo sapiens, UniProt Q13324); experiment: CRF2R agonist activity (EC50, Emax), called comparative CRF binding; format: cell-based
T1 sequence (Q13324 1-411): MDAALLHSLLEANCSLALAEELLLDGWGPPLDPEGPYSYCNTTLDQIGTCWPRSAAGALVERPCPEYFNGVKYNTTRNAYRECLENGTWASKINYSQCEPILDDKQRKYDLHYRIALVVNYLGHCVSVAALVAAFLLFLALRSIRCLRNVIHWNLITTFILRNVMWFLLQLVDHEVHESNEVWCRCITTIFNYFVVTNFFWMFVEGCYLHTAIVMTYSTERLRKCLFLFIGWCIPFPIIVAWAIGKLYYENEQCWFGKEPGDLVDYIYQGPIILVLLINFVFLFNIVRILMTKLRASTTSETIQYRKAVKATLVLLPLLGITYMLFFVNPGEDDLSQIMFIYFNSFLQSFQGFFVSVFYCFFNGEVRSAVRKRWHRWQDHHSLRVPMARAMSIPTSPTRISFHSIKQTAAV
Source text: (§1) The pharmacological activity and selectivity of the peptides of present invention can be determined using published test procedures. See, e.g, U.S. patent application Ser. No. 09/799,978. Because CRF2R and CRF1R are homologous proteins, it is expected that a certain proportion of agonists for CRF2R will also function as agonists of CRF1R. As discussed above, activation of CRF1R induces activation of the HPA axis since increased corticosteroid production leads to skeletal muscle atrophy. In most cases in which an increase in muscle mass or function is desired, it is not desirable to activate the HPA axis.
(§2) Because it is desirable to discriminate binding between CRF2R, as compared with CRF1R, the assays described above may be conducted using a cell, or membrane from a cell, which expresses only CRF2R or the assays can be conducted with a recombinant source of CRF2R. Cells expressing both forms of CRFR may be modified using homologous recombination to inactivate or otherwise disable the CRF1R gene. Alternatively, if the source of CRFR contains more than one CRFR type, the background signal produced by the receptor which is not of interest must be subtracted from the signal obtained in the assay. […] Known antagonists of CRFRs include, but, are not limited to, antalarmin (CRF1R selective), antisauvagine-30 (CRF2R selective) and astressin (nonselective for CRF1R/CRF2R).
(§3) Cell-based assays include the steps of contacting cells which express CRF1R or CRF2R with a peptide of the present invention or control and measuring activation of the CRFR by measuring the expression or activity of components of the CRFR signal transduction pathways.
(§4) As described in the background section above, CRFRs appear to couple through several different pathways including Gαs, Gαq or Gαi, depending upon the cell type. It is thought that agonist activation of CRFR allows the receptor to signal via any of these pathways, provided that the necessary pathway components are present in the particular cell type. Thus, to assay a particular peptide of the present invention for CRFR activation, an assay can use any of the signal transduction pathways as the readout even if the relevant cell type for treatment, in vivo, couples CRFR to skeletal muscle atrophy via a different pathway. […] Assays for measuring activation of these signaling pathways are known in the art.
(§5) For example, after contact with a peptide of the present invention, lysates of the cells can be prepared and assayed for induction of cAMP. cAMP is induced in response to Gαs activation. Because Gαs is activated by receptors other than CRFR and because a test peptide may be exerting its effect through CRFRs or by another mechanism, two control comparisons are relevant for determining whether the peptide increases levels of cAMP via activation of a CRFR. One control compares the cAMP level of cells contacted with the peptide and the cAMP level of cells contacted with a control compound (i.e., the vehicle in which the peptide is dissolved).
(§6) In one example, cAMP induction is measured with the use of DNA constructs containing the cAMP responsive element linked to any of a variety of reporter genes can be introduced into cells expressing CRFRs. Such reporter genes include, but are not limited to, chloramphenicol acetyltransferase (CAT), luciferase, glucuronide synthetase, growth hormone, fluorescent proteins (e.g., Green Fluorescent Protein), or alkaline phosphatase. Following exposure of the cells to the peptide, the level of reporter gene expression can be quantitated to determine the peptide's ability to increase cAMP levels and thus determine the peptide's ability to activate the CRFR.
(§7) In addition to using cells expressing full length CRFRs, cells can be engineered which express CRFRs containing the ligand binding domain of the receptor coupled to, or physically modified to contain, reporter elements or to interact with signaling proteins.

[2] = molecular target: T2, CRF1R (Homo sapiens, UniProt P34998); experiment: CRF1R agonist activity (EC50, Emax), called comparative CRF binding; format: cell-based
T2 sequence (P34998 24-415): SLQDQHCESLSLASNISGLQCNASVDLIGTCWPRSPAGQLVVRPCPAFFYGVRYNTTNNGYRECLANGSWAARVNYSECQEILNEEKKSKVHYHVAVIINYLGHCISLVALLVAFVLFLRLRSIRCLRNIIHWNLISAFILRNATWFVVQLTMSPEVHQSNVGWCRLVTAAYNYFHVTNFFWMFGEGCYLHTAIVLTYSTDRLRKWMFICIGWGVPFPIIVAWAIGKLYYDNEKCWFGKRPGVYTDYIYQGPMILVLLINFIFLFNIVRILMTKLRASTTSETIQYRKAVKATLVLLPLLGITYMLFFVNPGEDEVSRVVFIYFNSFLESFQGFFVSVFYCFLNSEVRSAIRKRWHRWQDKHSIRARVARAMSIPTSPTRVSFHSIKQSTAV
Source text: as §1, §2, §3, §4, §5, §6, §7

Compound	EC50 [1] [nM]	EC50 [2] [nM]	EC50 ([1]; read-out: CRF2R EC50) [nM]	EC50 ([2]; read-out: CRF1R EC50) [nM]
CC[C@H](C)[C@H](NC(=O)[C@H](CCC(=O)O)NC(=O)[C@@H](NC(=O)[C@H](CCSC)NC(=O)[C@H](CCCCN)NC(=O)[C@H](CCCNC(=N)N)NC(=O)[C@H](CC(C)C)NC(=O)[C@H](CC(C)C)NC(=O)[C@H](CCC(N)=O)NC(=O)[C@H](Cc1ccccc1)NC(=O)[C@@H]1CCCN1C(=O)[C@H](CC(C)C)NC(=O)[C@H](CC(=O)O)NC(=O)[C@@H](NC(=O)[C@H](CO)NC(=O)[C@@H](NC(=O)[C@@H]1CCCN1C(=O)[C@@H]1CCCN1C(=O)CNC(=O)[C@@H]1CCC(=O)N1)[C@@H](C)CC)[C@@H](C)CC)[C@@H](C)CC)C(=O)N[C@@H](CCC(=O)O)C(=O)N[C@@H](CCCCN)C(=O)N[C@@H](CCC(N)=O)C(=O)N[C@@H](CCC(=O)O)C(=O)N[C@@H](CCCCN)C(=O)N[C@@H](CCC(=O)O)C(=O)N[C@@H](CCCCN)C(=O)N[C@@H](CCC(N)=O)C(=O)N[C@@H](CCC(N)=O)C(=O)N[C@@H](C)C(=O)N[C@H](C(=O)N[C@@H](CC(N)=O)C(=O)N[C@@H](CC(N)=O)C(=O)N[C@@H](CCCNC(=N)N)C(=O)N[C@@H](CC(C)C)C(=O)N[C@@H](CC(C)C)C(=O)N[C@@H](CC(C)C)C(=O)N[C@@H](C)C(=O)N[C@H](C(=O)N[C@H](C(N)=O)C(C)C)[C@@H](C)O)[C@@H](C)O [compound 12]	9.72	928	–	–
CC[C@H](C)[C@H](NC(=O)[C@@H](NC(=O)[C@H](CC(=O)O)NC(=O)[C@H](CC(C)C)NC(=O)[C@H](CC(C)C)NC(=O)[C@H](CC(C)C)NC(=O)[C@H](CCCNC(=N)N)NC(=O)[C@H](CC(N)=O)NC(=O)[C@@H](NC(=O)[C@@H](NC(=O)[C@H](C)NC(=O)[C@H](CCC(N)=O)NC(=O)[C@H](CCC(N)=O)NC(=O)[C@H](CCCCN)NC(=O)[C@H](CCC(=O)O)NC(=O)[C@H](CCCCN)NC(=O)[C@H](CCC(=O)O)NC(=O)[C@H](CCC(N)=O)NC(=O)[C@H](CCCCN)NC(=O)[C@H](CCC(=O)O)NC(=O)[C@@H](NC(=O)[C@H](CCC(=O)O)NC(=O)[C@@H](NC(=O)[C@H](CCSC)NC(=O)[C@H](CCCCN)NC(=O)[C@H](CCCNC(=N)N)NC(=O)[C@H](CC(C)C)NC(=O)[C@H](CC(C)C)NC(=O)[C@H](CCC(N)=O)NC(=O)[C@H](Cc1ccccc1)NC(=O)[C@@H]1CCCN1C(=O)[C@H](CC(C)C)NC(=O)[C@H](CC(=O)O)NC(=O)[C@@H](NC(=O)[C@H](CO)NC(=O)[C@@H](NC(=O)[C@@H]1CCCN1C(=O)[C@@H]1CCCN1C(=O)CNC(=O)[C@@H]1CCC(=O)N1)[C@@H](C)CC)[C@@H](C)CC)[C@@H](C)CC)[C@@H](C)CC)[C@@H](C)O)[C@@H](C)O)[C@@H](C)O)C(N)=O [compound 13]	3.88	97.7	–	–
CC[C@H](C)[C@H](NC(=O)[C@@H](NC(=O)[C@H](CC(=O)O)NC(=O)[C@H](CC(C)C)NC(=O)[C@H](CC(C)C)NC(=O)[C@H](CC(C)C)NC(=O)[C@H](CCCNC(=N)N)NC(=O)[C@H](CC(N)=O)NC(=O)[C@H](CC(N)=O)NC(=O)[C@@H](NC(=O)[C@H](C)NC(=O)[C@H](CCC(N)=O)NC(=O)[C@H](CCC(N)=O)NC(=O)[C@H](CCCCN)NC(=O)[C@H](CCC(=O)O)NC(=O)[C@H](CCCCN)NC(=O)[C@H](CCC(=O)O)NC(=O)[C@H](CCC(N)=O)NC(=O)[C@H](CCCCN)NC(=O)[C@H](CCC(=O)O)NC(=O)[C@@H](NC(=O)[C@H](CCC(=O)O)NC(=O)[C@@H](NC(=O)[C@H](CCSC)NC(=O)[C@H](CCCCN)NC(=O)[C@H](CCCNC(=N)N)NC(=O)[C@H](CC(C)C)NC(=O)[C@H](CC(C)C)NC(=O)[C@H](CCC(N)=O)NC(=O)[C@H](Cc1ccccc1)NC(=O)[C@@H]1CCCN1C(=O)[C@H](CC(C)C)NC(=O)[C@H](CC(=O)O)NC(=O)[C@@H](NC(=O)[C@H](CO)NC(=O)[C@@H](NC(=O)[C@@H]1CCCN1C(=O)[C@@H]1CCCN1C(=O)CNC(=O)[C@@H]1CCC(=O)N1)[C@@H](C)CC)[C@@H](C)CC)[C@@H](C)CC)[C@@H](C)CC)[C@@H](C)O)[C@@H](C)O)C(N)=O [compound 14]	–	–	6.33	109
CC[C@H](C)[C@H](NC(=O)[C@H](CCC(=O)O)NC(=O)[C@@H](NC(=O)[C@H](CCSC)NC(=O)[C@H](CCCCN)NC(=O)[C@H](CCCNC(=N)N)NC(=O)[C@H](CC(C)C)NC(=O)[C@H](CC(C)C)NC(=O)[C@H](CCC(N)=O)NC(=O)[C@H](Cc1ccccc1)NC(=O)[C@@H]1CCCN1C(=O)[C@H](CC(C)C)NC(=O)[C@H](CC(=O)O)NC(=O)[C@@H](NC(=O)[C@H](CO)NC(=O)[C@@H](NC(=O)[C@@H]1CCCN1C(=O)[C@@H]1CCCN1C(=O)CNC(=O)[C@@H]1CCC(=O)N1)[C@@H](C)CC)[C@@H](C)CC)[C@@H](C)CC)C(=O)N[C@@H](CCC(=O)O)C(=O)N[C@@H](CCCCN)C(=O)N[C@@H](CCC(N)=O)C(=O)N[C@@H](CCC(=O)O)C(=O)N[C@@H](CCCCN)C(=O)N[C@@H](CCC(=O)O)C(=O)N[C@@H](CCCCN)C(=O)N[C@@H](CCC(N)=O)C(=O)N[C@@H](CCC(N)=O)C(=O)N[C@@H](C)C(=O)N[C@@H](C)C(=O)N[C@@H](C)C(=O)N[C@@H](CC(N)=O)C(=O)N[C@@H](CCCNC(=N)N)C(=O)N[C@@H](CC(C)C)C(=O)N[C@@H](CC(C)C)C(=O)N[C@@H](CC(C)C)C(=O)N[C@@H](CC(=O)O)C(=O)N[C@H](C(=O)N[C@H](C(N)=O)C(C)C)[C@@H](C)O [compound 15]	6.56	85.3	–	–
CC[C@H](C)[C@H](NC(=O)[C@@H](NC(=O)[C@H](CC(=O)O)NC(=O)[C@H](CC(C)C)NC(=O)[C@H](CC(C)C)NC(=O)[C@H](CC(C)C)NC(=O)[C@H](CCCNC(=N)N)NC(=O)[C@H](CC(N)=O)NC(=O)[C@H](CC(N)=O)NC(=O)[C@H](C)NC(=O)[C@H](C)NC(=O)[C@H](CCC(N)=O)NC(=O)[C@H](CCC(N)=O)NC(=O)[C@H](CCCCN)NC(=O)[C@H](CCC(=O)O)NC(=O)[C@H](CCCCN)NC(=O)[C@H](CCC(=O)O)NC(=O)[C@H](CCC(N)=O)NC(=O)[C@H](CCCCN)NC(=O)[C@H](CCC(=O)O)NC(=O)[C@@H](NC(=O)[C@H](CCC(=O)O)NC(=O)[C@@H](NC(=O)[C@H](CCSC)NC(=O)[C@H](CCCCN)NC(=O)[C@H](CCCNC(=N)N)NC(=O)[C@H](CC(C)C)NC(=O)[C@H](CC(C)C)NC(=O)[C@@H](NC(=O)[C@H](CCC(N)=O)NC(=O)[C@@H]1CCCN1C(=O)[C@H](CC(C)C)NC(=O)[C@H](CC(=O)O)NC(=O)[C@@H](NC(=O)[C@H](CO)NC(=O)[C@@H](NC(=O)[C@@H]1CCCN1C(=O)[C@@H]1CCCN1C(=O)CNC(=O)[C@@H]1CCC(=O)N1)[C@@H](C)CC)[C@@H](C)CC)C(C)C)[C@@H](C)CC)[C@@H](C)CC)[C@@H](C)O)C(N)=O [compound 197]	–	–	48.1	–

Like-named read-outs stand apart in the source and are kept apart here.
